Among the targets are KRas^G12D (Homo sapiens, UniProt P01116, G12D); KRas^G12R (Homo sapiens, UniProt P01116, G12R); KRas^G12V (Homo sapiens, UniProt P01116, G12V).
In experiment [1] the test system is KRas-mediated phosphorylation of ERK in AsPC-1 cells.
The subject of experiment [2] is KRas-mediated phosphorylation of ERK in H727 cells.

The chains behind the UniProt entries cited, without tags or fusion partners. Residues count along the entry.
UniProt P01116, 1-169 isoform 2 G12D limits assumed: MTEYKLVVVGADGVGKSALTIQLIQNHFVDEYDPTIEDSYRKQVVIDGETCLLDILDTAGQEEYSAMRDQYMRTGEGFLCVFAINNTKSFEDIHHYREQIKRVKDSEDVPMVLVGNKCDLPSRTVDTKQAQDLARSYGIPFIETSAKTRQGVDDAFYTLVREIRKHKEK
UniProt P01116, 1-169 isoform 2 G12R limits assumed: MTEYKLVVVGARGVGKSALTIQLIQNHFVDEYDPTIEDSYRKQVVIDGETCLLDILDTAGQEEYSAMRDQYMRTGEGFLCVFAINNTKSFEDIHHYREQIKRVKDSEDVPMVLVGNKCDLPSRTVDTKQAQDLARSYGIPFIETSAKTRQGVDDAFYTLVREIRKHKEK
UniProt P01116, 1-169 isoform 2 G12V limits assumed: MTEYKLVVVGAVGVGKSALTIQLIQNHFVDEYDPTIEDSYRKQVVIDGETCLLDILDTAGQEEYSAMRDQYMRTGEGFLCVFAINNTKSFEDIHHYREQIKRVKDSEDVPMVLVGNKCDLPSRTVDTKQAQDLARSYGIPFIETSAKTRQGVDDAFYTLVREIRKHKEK

The text below walks through data of patent US20260015350A1, “AZAQUINAZOLINE PAN-KRAS INHIBITORS” (Mirati Therapeutics, Inc., priority 2022, published 2026).

Structures are written as SMILES.

Regarding `CCc1c(F)ccc2cc(O)cc(-c3ncc4c(NCc5cc(C(=O)N(C)C)nn5C(F)F)nc(OC[C@@]56CCCN5C[C@H](F)C6)nc4c3F)c12`, the half-inhibitory concentration (IC50) – broadly, the midpoint of a concentration-inhibition curve – was determined as 32 nM against KRas^G12D; 26 nM at KRas^G12R; 10 nM on KRas^G12V; 3650 nM in experiment [1]; 936 nM in experiment [2].
